Earlier results in patent US20240156723A1, “DEPOT COMPOSITIONS FOR VESICULAR MONOAMINE TRANSPORTER 2 (VMAT2) INHBITORS” (Foresee Pharmaceuticals Co., Ltd., priority 2022, published 2024).

Protein sequences, listed by entry. Tags and fused reporters are not part of them.
UniProt Q05940, whole entry: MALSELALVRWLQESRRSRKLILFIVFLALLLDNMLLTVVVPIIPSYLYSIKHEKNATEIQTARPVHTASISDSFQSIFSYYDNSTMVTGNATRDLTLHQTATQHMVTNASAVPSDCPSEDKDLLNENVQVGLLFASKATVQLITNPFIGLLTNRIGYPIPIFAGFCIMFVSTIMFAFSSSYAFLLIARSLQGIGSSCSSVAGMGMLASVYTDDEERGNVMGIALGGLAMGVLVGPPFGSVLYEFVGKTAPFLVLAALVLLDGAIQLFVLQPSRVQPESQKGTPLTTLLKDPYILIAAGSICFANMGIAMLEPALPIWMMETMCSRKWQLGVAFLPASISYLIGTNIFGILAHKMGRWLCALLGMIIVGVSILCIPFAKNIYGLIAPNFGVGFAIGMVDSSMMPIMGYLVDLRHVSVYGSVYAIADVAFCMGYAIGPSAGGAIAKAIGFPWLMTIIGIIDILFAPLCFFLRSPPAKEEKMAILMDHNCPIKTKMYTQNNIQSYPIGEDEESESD

Target: human VMAT2 (Homo sapiens, UniProt Q05940)
Details: read-out: human VMAT2 binding affinity Ki; cited from earlier work

## [−]-β-dihydrotetrabenazine [(−)-(β)-DHTBZ]
  Ki: ~690 nM
